Assay results taken from US20040062729A1, “Photoprotective sunscreen compositions comprising 1,3,5-triazine compounds and triesters of benenetricarboxylic acids” (SOCIETE L'OREAL S.A., priority 2001, published 2004).

Conditions: 5 g 2,4-bis{[4-2-ethylhexyl-oxy)]-2-hydroxy]phenyl}-6-(4-methoxyphenyl)-1,3,5-triazine in 20 g solvent oil, heated to 83° C., cooled

Presence of crystals, storage in the cold (+4° C.) for 4 days (+4° C.): Crystals
Presence of crystals, storage at room temperature for 4 days (room temperature): Crystals
Substance: Oxypropylenated dimyristyl adipate (3 PO)
